# Source: ChEMBL document CHEMBL3046915, “Synthesis and evaluation of -opioid receptor agonistic activity and antinociceptive effect of novel morphine analogues, 7-phenyl-6,14-endo-etheno-tetrahydrothebaine with substituted o-, m- and p-amino group” (2011)
# Chains of the proteins cited; added tags and fusions are not shown. Lines headed by an entry give the natural chain unless they say otherwise; changes in a name come on top.
# UniProt P41144: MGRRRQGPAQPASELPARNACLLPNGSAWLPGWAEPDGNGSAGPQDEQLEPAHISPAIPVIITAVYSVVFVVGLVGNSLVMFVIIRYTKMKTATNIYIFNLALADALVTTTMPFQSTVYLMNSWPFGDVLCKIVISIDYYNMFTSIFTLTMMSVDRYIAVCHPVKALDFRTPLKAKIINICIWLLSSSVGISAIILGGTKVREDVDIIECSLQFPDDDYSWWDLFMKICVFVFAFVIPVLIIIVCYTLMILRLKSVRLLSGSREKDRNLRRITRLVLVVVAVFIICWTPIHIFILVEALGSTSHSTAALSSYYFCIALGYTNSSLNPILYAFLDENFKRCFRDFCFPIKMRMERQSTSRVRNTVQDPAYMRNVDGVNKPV
# Biological target: Kappa-type opioid receptor (Cavia porcellus) (UniProt P41144)
# Experiment: Intrinsic activity at kappa opioid receptor in Oryctolagus cuniculus (rabbit) vas deferens assessed as inhibition of electrically evoked contraction after 15 min
structure (smiles),measurement,value
Oc1ccc2c(c1)[C@@]13CCCC[C@@]1(O)[C@@H](C2)N(CC1CCC1)CC3,pD2,6.49
